Assay results published in patent EP0559893A1, “XANTHINE DERIVATIVE” (priority 1990, dated 1992).

Sequences of proteins named here, by UniProt entry; tags and fusion partners are left off.
UniProt P47745, whole entry: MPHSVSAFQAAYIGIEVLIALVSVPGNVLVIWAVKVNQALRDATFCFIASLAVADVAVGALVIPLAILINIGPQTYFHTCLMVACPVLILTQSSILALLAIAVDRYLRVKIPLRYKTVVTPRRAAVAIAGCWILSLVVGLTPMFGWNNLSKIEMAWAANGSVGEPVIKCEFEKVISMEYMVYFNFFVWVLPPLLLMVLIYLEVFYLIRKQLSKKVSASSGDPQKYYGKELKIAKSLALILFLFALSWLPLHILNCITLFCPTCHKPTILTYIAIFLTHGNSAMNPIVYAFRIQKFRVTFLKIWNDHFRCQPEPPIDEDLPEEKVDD

Target: Adenosine A₁ receptor (Cavia porcellus, UniProt P47745)
Assay: Adenosine A1 receptor binding test (3H-CHA binding)

For `CCCn1c(=O)c2nc(/C=C/c3cc(OC)c(OC)c(OC)c3)[nH]c2n(CCC)c1=O` [Compound 13, 1,3-Dipropyl-8-[(E)-3,4,5-trimethoxystyryl]xanthine], the Ki was 1.7 µM, the inhibition at 100 µM (read-out: A1 Receptor Inhibition (%) 10^-4 M) was 57% and the inhibition at 10 µM (read-out: A1 Receptor Inhibition (%) 10^-5 M) was 50%.
